Only a part is listed here, and it is no random draw. Some results for these compounds are left out of this collection, so the calls shown say nothing about other tests. Activity calls are given as the source filed them. Rule as the data show it: active = inhibition above about 50%; inactive = the rest.
Molecular target: Integrin alpha-4 (Homo sapiens) (UniProt P13612)
Assay: inhibition in human VLA-4 binding assay, primary screen, VLA-4 allosteric modulator project, MLPCN library, flow cytometry, VLA-4 expressing cells (AID 2557)
Details: ligand binding flow cytometry, hits give high values, about 7 µM as worked out from the volumes in the protocol

The chains behind the UniProt entries cited, without tags or fusion partners.
UniProt P13612, whole entry, looked up: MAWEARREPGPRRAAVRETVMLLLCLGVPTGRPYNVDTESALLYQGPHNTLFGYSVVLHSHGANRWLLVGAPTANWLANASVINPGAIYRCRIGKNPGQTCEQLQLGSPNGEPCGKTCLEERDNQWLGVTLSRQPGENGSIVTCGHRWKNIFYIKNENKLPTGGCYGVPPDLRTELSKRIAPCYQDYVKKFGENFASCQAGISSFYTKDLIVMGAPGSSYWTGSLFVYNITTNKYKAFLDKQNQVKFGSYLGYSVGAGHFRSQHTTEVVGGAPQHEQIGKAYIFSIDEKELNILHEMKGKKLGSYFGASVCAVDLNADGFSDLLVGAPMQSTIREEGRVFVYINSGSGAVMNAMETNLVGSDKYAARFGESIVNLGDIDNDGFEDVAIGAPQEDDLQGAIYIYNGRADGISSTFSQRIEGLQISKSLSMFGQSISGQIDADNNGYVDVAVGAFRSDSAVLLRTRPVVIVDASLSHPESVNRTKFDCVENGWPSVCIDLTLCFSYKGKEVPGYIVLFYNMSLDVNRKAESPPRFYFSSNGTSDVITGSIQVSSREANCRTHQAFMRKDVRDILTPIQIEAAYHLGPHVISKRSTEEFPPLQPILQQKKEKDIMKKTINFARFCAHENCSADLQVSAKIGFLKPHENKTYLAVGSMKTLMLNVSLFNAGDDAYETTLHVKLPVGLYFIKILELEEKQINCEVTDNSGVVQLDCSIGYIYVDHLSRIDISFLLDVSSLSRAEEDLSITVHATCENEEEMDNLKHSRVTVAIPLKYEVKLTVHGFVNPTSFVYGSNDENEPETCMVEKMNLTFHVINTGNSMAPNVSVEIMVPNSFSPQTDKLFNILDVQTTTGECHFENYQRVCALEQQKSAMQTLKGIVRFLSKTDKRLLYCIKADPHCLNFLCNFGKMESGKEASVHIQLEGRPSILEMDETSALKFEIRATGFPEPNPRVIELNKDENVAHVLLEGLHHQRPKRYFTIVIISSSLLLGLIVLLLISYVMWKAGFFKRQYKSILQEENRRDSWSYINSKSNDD

SMILES | inhibition
Cc1ccc(C(=O)NCC2(N3CCCCC3)CCCCC2)cc1 | inactive: -8.27%
CCN(CC)CC(C)C(C)OC(=O)C(O)(c1ccccc1)c1ccccc1 (centres undefined) | inactive: 1.52%
COc1cc(SC)ccc1C(=O)NCC1(N(C)C)CCCCC1 | inactive: 5.23%
CC(C)N1C(=O)CC2(CCN(CCOC(=O)C(O)(c3ccccc3)c3ccccc3)CC2)C1=O | inactive: -6.82%
CN1[C@@H]2CC[C@H]1CC(OC(=O)C(O)(c1ccccc1)c1ccccc1)C2 (some centres undefined) | inactive: -2.5%
O=C(NCC1(N2CCCCC2)CCCCC1)c1cc([N+](=O)[O-])ccc1Cl | inactive: -5.05%
COc1ccc(C(=O)NCC2(N(C)C)CCCCC2)cc1 | inactive: -0.29%
Cc1cc(C(=O)NCC2(N3CCCCC3)CCCCC2)ccc1[N+](=O)[O-] | inactive: 0.94%
CCN1CCCC(OC(=O)C2(O)c3ccccc3C=Cc3ccccc32)C1 (centres undefined) | inactive: -10.2%
O=C(NCC1(N2CCCCC2)CCCCC1)c1cccc(Br)c1 | inactive: -0.67%
C=CCN1CCN(CCOC(=O)C(O)(c2ccccc2)c2ccccc2)CC1 | inactive: 6.41%
O=C(NCC1(N2CCCCC2)CCCCC1)c1cc(F)c(F)cc1Cl | inactive: -6.92%
Cc1ccccc1C(=O)NCC1(N2CCCCC2)CCCCC1 | inactive: -17.6%
CN(C)C1CCCC1OC(=O)C(O)(c1ccccc1)c1ccccc1 (centres undefined) | inactive: 6.7%
CN(C)c1ccc(C(=O)NCC2(N(C)C)CCCCC2)cc1 | inactive: -4.73%
O=C(NCC1(N2CCCCC2)CCCCC1)c1cccc(Cl)c1 | inactive: 11.6%
COc1cccc(C(=O)NCC2(N3CCCCC3)CCCCC2)c1 | inactive: 7.23%
COc1ccc(Cl)cc1C(=O)NCC1(N(C)C)CCCCC1 | inactive: 12.2%
COc1cc(C(=O)NCC2(N(C)C)CCCCC2)c([N+](=O)[O-])cc1OC | inactive: 2.18%
CN(C)C1(CNC(=O)c2ccc(Br)cc2)CCCCC1 | inactive: 11%
CC(C)Oc1ccc(C(=O)NCC2(N(C)C)CCCCC2)cc1 | inactive: 17.1%
CN(C)c1cccc(C(=O)NCC2(N(C)C)CCCCC2)c1 | inactive: -8.87%
COc1ccc(Br)c(C(=O)NCC2(N3CCCCC3)CCCCC2)c1 | inactive: -0.42%
O=C(OC1CN2CCC1CC2)C(CO)(c1ccccc1)c1ccccc1 (centres undefined) | inactive: 12.9%
